Test results from PubChem BioAssay AID588353 (Johns Hopkins Ion Channel Center, 2011).
Only a part is listed here, and it is no random draw. Activity calls are given as the source filed them.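 Rule for the calls: active = primary screen active, with duplicate mean exceeding buffer control mean plus 3 SD of buffer wells (cut at about 28% in these data); inactive = the rest.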

The compounds below were run against Potassium voltage-gated channel subfamily KQT member 1 (Homo sapiens) (UniProt P51787) (assay: KCNQ1 potassium channel inhibitors, confirmation, cell-based, Tl flux, duplicate (AID 588353;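 note: 0% = buffer control ratio and 100% = XE991 inhibitor control ratio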)). Conditions: KCNQ1 cell line, FluxOR thallium flux fluorescence; at 10 µM; stronger effect = higher value.
Summary of the method: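 Material: stable KCNQ1-expressing CHO cell line. Incubation: compound exposure 20 min at room temperature. Replication: duplicates, mean used. Control set: buffer and XE991. Evaluation: percent inhibition relative to buffer and XE991. Reagent: Tl2SO4 plus K2SO4 stimulus, each 12.5 mM in 5x stock. Measured by: thallium-sensitive FluxOR dye fluorescence.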

**Q.** `COc1cc(C(=O)NCC2(N3CCOCC3)CCCCC2)cc(Cl)c1OC(C)C` was tested. Which inhibition did it give?
**A.** Its inhibition is active: 78%.

**Q.** `CCC1=CC2Cc3nc4ccc(Cl)cc4c(N)c3C(C1)C2` (configuration not stated) was tested. Which inhibition did it give?
**A.** Its inhibition is active: 68%.
